Target: the molecule itself
Test: mass photometry; 40 nM protein in 40 mM HEPES pH 7.5; OneMP mass photometer

B1: His6-SUMO-PPM1H wild type, full length (enzyme, human, UniProt Q9ULR3 1-514, looked up)
chain: MLTRVKSAVANFMGGIMAGSSGSEHGGGSCGGSDLPLRFPYGRPEFLGLSQDEVECSADHIARPILILKETRRLPWATGYAEVINAGKSTHNEDQASCEVLTVKKKAGAVTSTPNRNSSKRRSSLPNGEGLQLKENSESEGVSCHYWSLFDGHAGSGAAVVASRLLQHHITEQLQDIVDILKNSAVLPPTCLGEEPENTPANSRTLTRAASLRGGVGAPGSPSTPPTRFFTEKKIPHECLVIGALESAFKEMDLQIERERSSYNISGGCTALIVICLLGKLYVANAGDSRAIIIRNGEIIPMSSEFTPETERQRLQYLAFMQPHLLGNEFTHLEFPRRVQRKELGKKMLYRDFNMTGWAYKTIEDEDLKFPLIYGEGKKARVMATIGVTRGLGDHDLKVHDSNIYIKPFLSSAPEVRIYDLSKYDHGSDDVLILATDGLWDVLSNEEVAEAITQFLPNCDPDDPHRYTLAAQDLVMRARGVLKDRGWRISNDRLGSGDDISVYVIPLIHGNKLS
notes: PPM1H phosphatase, human, full length; Calculated mass of the fusion protein about 68.5 kDa; also called His6‐SUMO‐PPM1H^WT; 6HIS‐SUMO‐PPM1H WT; source: E. coli BL21-DE3-pLysS, purified (cobalt resin, Superdex 200); not shown: His6, N-terminal, kept; SUMO, N-terminal, kept
stoichiometry N: 2
